# In article PMC7156456, “Modulation of virus-induced NF-κB signaling by NEMO coiled coil mimics” (Nature Communications, 2020):
# Sequences of proteins named here, by UniProt entry; tags and fusion partners are left off. A change or cut given only in a name is not applied to a line headed by its entry.
# UniProt Q9Y6K9: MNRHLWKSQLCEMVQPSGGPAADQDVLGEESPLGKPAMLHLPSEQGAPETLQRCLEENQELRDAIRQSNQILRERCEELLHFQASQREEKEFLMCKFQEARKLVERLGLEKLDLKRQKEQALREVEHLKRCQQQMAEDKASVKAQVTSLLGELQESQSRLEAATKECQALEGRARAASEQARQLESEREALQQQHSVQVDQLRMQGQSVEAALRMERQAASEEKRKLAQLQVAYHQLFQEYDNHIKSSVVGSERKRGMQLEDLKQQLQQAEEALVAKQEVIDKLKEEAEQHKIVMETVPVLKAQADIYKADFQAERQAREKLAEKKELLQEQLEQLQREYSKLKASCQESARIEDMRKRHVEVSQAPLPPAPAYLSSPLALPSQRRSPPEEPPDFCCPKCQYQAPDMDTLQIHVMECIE
# Biological target: His-MBP vFLIP (1-178) (Kaposi's sarcoma herpesvirus (KSHV)) (UniProt Q76RF1)
# Experiment: AlphaScreen or HTRF
substance,measurement,value
wild-type NEMO coiled coil (non-biotinylated His-NEMO) (from UniProt Q9Y6K9 150-272) (domain or fragment),Ki,390 nM
